The values that follow come from BindingDB's records for doi:10.1007/s10822-022-00478-x (Roche Innovation Center Basel, F. Hoffmann-La Roche Ltd., 2022).

Chains of the proteins cited; added tags and fusions are not shown. A line that says so, or that is headed by a name, gives the form on record, which may keep a tag or linker.
UniProt Q9Y233, as listed by the source: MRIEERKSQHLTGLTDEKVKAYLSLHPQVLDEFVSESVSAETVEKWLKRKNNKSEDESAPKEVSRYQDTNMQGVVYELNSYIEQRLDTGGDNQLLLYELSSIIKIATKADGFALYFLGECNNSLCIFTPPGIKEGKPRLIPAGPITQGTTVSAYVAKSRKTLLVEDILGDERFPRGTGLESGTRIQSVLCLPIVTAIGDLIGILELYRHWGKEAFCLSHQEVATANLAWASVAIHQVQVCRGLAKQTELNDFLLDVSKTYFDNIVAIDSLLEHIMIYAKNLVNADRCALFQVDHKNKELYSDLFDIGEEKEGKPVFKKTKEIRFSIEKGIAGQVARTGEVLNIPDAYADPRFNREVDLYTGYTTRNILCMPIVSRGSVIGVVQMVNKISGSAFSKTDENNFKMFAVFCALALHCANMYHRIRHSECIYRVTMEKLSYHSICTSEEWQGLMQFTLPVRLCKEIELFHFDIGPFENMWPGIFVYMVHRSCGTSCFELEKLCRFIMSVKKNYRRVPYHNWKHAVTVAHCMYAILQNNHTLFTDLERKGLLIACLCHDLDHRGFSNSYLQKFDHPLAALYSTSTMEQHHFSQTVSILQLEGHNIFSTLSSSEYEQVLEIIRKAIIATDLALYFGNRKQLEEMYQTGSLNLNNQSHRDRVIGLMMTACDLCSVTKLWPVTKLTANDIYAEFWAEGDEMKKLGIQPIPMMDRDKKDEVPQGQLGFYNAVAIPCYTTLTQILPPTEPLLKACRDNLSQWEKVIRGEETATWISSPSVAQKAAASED

In this experiment the target is cAMP and cAMP-inhibited cGMP 3',5'-cyclic phosphodiesterase 10A (Homo sapiens, UniProt Q9Y233). Nature of the experiment: PDE10A assay. The procedure: Compounds were diluted in 20 mM HEPES/NaOH (pH 7.5), 10 mM MgCl2 and 0.05 mg/ml bovine serum albumin. A fixed amount of 2 ng/well human PDE10A enzyme was added and incubated at room temperature for 15 min under agitation. The reaction was started by the addition of the substrate cocktail [3H]cGMP (Perkin Elmer NET337001MC, S.A. 13.5 Ci/mmol) / cGMP at a final concentration of 50 nM and incubated for an additional 15 min. The reaction was stopped by the addition of 0.5 mg/well of Y-Si SPA beads. The plates were shaken for 1 h, followed by a brief centrifugation (170 g for 1 min). The radioactivity bound to the beads was estimated using a TopCount (Perkin-Elmer). For the determination of IC50 values, a four parameters logistics equation was used. pIC50 is defined as − log10(IC50).

On to `CC(C)(O)CNC(=O)c1c(F)cccc1NC(=O)c1nc(C2CC2)cnc1Nc1cncnc1` [US8703768, 310], for which the half-inhibitory concentration (IC50) was 9.14 nM.
